Assay results as given in patent US7851599B2, “Combination of an anti-ED—B fibronectin domain antibody—IL-2 fusion protein and gemcitabine” (Philogen S.p.A., priority 2006, dated 2010).

Legend:
Type in all cases: in vivo, nude mice
serum lipase = test: Serum lipase as surrogate marker of pancreatitis; conditions: DanG-bearing mice; end of treatment
Method: (§1) Mouse blood samples were obtained by retroorbital bleeding or decapitation. Samples were centrifuged and supernatants were stored at −20° C. Serum CA 19-9 levels were measured by a fully automated chemiluminescence immunoassay on an ADVIA Centaur (Bayer, Leverkusen, Germany) and eipase levels were determined using a kinetic colorimetric assay on an ADVIA 2400 (Bayer, Leverkusen, Germany).
(§2) To determine the efficacy of L19IL2 treatment in a pancreatic cancer situation, athymic nude mice were orthotopically injected with the human pancreatic cancer cell line DanG. […] At the end of therapy, all mice were sacrificed and the tumor volume was calculated. […] Based on this observation, we evaluated the time-response relationship of L19IL2 induced tumor growth delay by repeatedly collecting blood samples of vehicle and L19IL2 treated mice. […]
FIG. 2 Therapeutic effects of L19IL2 against orthotopic pancreatic cancer in nude mice. […] All mice were sacrificed on day 21 and tumor volume was calculated (A, C). […] Values are expressed as the percentage of tumor volume from vehicle treated controls. *: p≦0.004 (versus control and L1 g). […] Serum concentrations of CA 19-9 were determined by chemiluminescence immunoassay and CA 19-9 level versus tumor volume was plotted for each individual animal. […] At the end of treatment, blood samples were collected and serum lipase was analyzed by a kinetic calorimetric assay. […]

[1] = tested on: human pancreatic cancer cell line MiaPaca; test: Orthotopic MiaPaca pancreatic cancer xenograft, tumor volume
Method: (§3) Orthotopic transplantation was carried out as described.
To investigate whether L19IL2 induced reduction of tumor growth is cell-type specific, mice were orthotopically injected with the human pancreatic cancer cell line MiaPaca. After establishment of solid tumors, mice were randomized to receive 0.9% saline or 1.43MIU/kg BW or 4.29 MIU/kg BW IL-2 equivalents of either L19IL2 or IL-2 for 10 days.
FIG. 2 Therapeutic effects of L19IL2 against orthotopic pancreatic cancer in nude mice. A-C Nude mice were orthotopically injected with the human pancreatic cancer cell line DanG. […] All mice were sacrificed on day 21 and tumor volume was calculated (A, C). […] Values are expressed as the percentage of tumor volume from vehicle treated controls. *: p≦0.004 (versus control and L1 g). […] Serum concentrations of CA 19-9 were determined by chemiluminescence immunoassay and CA 19-9 level versus tumor volume was plotted for each individual animal. […] At the end of treatment, blood samples were collected and serum lipase was analyzed by a kinetic calorimetric assay. […] All mice were killed at day 54 and the tumor volume was calculated. Data shown are expressed as the mean±SEM of each treatment group. *: p≦0.0007 (versus control); +, p=0.0003 (L19IL2 1.43 MIU/kg BW versus equimolar amounts of IL-2); ‡: p=0.0513 (L19IL2 4.29 MIU/kg BW versus equimolar amounts of IL-2).

serum CA 19-9 = test: Serum CA 19-9 levels in mice bearing orthotopic DanG tumors; conditions: after treatment (data not shown)
Method: as §3, §1, §2
FIG. 2 Therapeutic effects of L19IL2 against orthotopic pancreatic cancer in nude mice. […] All mice were sacrificed on day 21 and tumor volume was calculated (A, C). […] Values are expressed as the percentage of tumor volume from vehicle treated controls. *: p≦0.004 (versus control and L1 g). […] Serum concentrations of CA 19-9 were determined by chemiluminescence immunoassay and CA 19-9 level versus tumor volume was plotted for each individual animal. […]

[2] = tested on: human pancreatic cancer cell line DanG; test: Orthotopic DanG pancreatic cancer xenograft, tumor volume

IL-2: untargeted Interleukin 2, anti-tumor cytokine used as comparator
serum lipase concentrations compared to controls (serum lipase): neither L19IL2 nor untargeted IL-2 interfered
tumor volume, % of control ([1]; high dosage 4.29 MIU/kg BW IL-2 equivalents, days 40-44, 47-51, killed day 54): 47.3%
therapeutic effect on tumor load ([1]; low dosage 1.43 MIU/kg BW for 10 days): not therapeutic
serum CA 19-9 levels in tumor bearing mice (serum CA 19-9): did not impinge on serum tumor markers
effect on tumor growth ([2]; higher dose 4.29 MIU/kg BW for 10 days): only a minor effect
effect on tumor growth ([2]; lower dose 1.43 MIU/kg BW for 10 days): no effect on tumor growth
